From ChEMBL document CHEMBL3227964 (J Med Chem, 1979)

How the values were obtained:
[1] = tested on: Escherichia coli; experiment: Antimicrobial activity against Escherichia coli AB1157 assessed as reduction in colony formation at 1 mM; type: organism-based; settings: in vivo, 1000 µM
[2] = tested on: Escherichia coli; experiment: Induction of sensitization to irradiation in Escherichia coli AB1157 under oxic condition assessed as reduction in colony formation at 1 mM measured after irradiation; type: organism-based; settings: in vivo, 1000 µM

`O=[N+]([O-])c1cn(CCO)c([N+](=O)[O-])n1` was tested, and the Activity [1] was “Non-toxic” and the Activity [2] was “Toxic”.
